# Apparent affinities of Ab-95 variants for a coronavirus HR2 peptide

Values reported by Engelhart et al. 2022, doi:10.1038/s41597-022-01779-4 (FLAb copy).

The target is the same throughout: PDVDLGDISGINAS, from the HR2 region of SARS-CoV-2 spike.

The variants keep the heavy chain, the linker and the frameworks of Ab-95 (scFv order VH, the linker GGGGSGGGGSGGGGS, VL).
VH: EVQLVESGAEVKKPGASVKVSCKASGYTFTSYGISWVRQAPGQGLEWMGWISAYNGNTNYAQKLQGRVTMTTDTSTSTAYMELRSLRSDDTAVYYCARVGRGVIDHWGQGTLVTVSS
VL: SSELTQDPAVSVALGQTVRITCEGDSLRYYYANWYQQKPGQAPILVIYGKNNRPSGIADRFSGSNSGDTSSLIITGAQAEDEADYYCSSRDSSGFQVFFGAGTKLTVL

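The parent was found by panning a naive human phage display library on the peptide. Variants in AAYL52 differ from the parent at up to three CDR positions; double and triple changes were sampled at random. AlphaSeq pools MATa yeast showing the antibodies with MATalpha yeast showing the peptide. After mating in shaken culture at 30 °C for 16 h, diploids were selected and their barcode pairs sequenced. Read counts were normalised to the haploid input and turned into Kd by a linear fit to BCL2-family pairs of known affinity, for each replicate. There are three technical replicates.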

The whole VL of each variant is written out. This list gathers variants with a substitution at K50 (VL, numbered from residue 1). Values are log10 of the apparent Kd in nM; lower means stronger binding. Replicates are averaged; those with no signal do not enter the mean. "no signal" means that the variant was in the library but no mating with the target was seen in any replicate; the authors take this as a sign of poor binding, and no number exists. Background: pairings of library AAYL52 with three empty control strains gave a value in 28% of cases (median 3.91, 5th percentile 2.90). Values in that range, when seen in few replicates, are hard to tell from nonspecific mating.

With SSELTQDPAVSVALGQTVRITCEGDSLRYYYANWYQQKPGQAPILVIYSVNNRPSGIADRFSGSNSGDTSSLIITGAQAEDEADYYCSSRDSSIFQVFFGAGTKLTVL the result was 4.29 (1 of 3 replicates).
With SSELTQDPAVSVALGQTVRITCEPDSLRYYYANWYQQKPGQAPILVIYGENNRPSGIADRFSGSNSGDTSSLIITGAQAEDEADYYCSSIDSSGFQVFFGAGTKLTVL the result was 3.63 (1 of 3 replicates).
With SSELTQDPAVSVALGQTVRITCEGDSLRYYLMNWYQQKPGQAPILVIYGANNRPSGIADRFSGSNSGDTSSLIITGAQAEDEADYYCSSRDSSGFQVFFGAGTKLTVL the result was 2.62 (3 of 3 replicates).
With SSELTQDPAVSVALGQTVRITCEGDSLRYYYANWYQQKPGQAPILVIYGHNNRESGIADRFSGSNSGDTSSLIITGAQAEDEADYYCSSRDSSGFQVFFGAGTKLTVL the result was 2.69 (3 of 3 replicates).
With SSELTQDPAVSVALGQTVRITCEGDSLRYYYANWYQQKPGQAPILVIYGHQNRPSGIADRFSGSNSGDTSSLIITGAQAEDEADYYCSSRDSSGFQVFFGAGTKLTVL the result was 3.02 (3 of 3 replicates).
With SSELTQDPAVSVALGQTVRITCEGDSLRYYSANWYQQKPGQAPILVIYTRNNRPSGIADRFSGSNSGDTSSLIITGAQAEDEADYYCSSRDSSGFQVFFGAGTKLTVL the result was 3.05 (3 of 3 replicates).
With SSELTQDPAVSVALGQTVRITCEGDSLRWYYANWYQQKPGQAPILVIYGQNNRPSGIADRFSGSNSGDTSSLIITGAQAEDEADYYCSSRDSSGFPVFFGAGTKLTVL the result was 2.74 (3 of 3 replicates).
With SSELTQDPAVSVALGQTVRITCEGDSLRYYYANWYQQKPGQAPILVIYGDNNRWSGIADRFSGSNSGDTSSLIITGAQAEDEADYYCSSNDSSGFQVFFGAGTKLTVL the result was 4.37 (3 of 3 replicates).
With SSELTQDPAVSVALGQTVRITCCGDSLRYYYANWYQQKPGQAPILVIYGCNNRPSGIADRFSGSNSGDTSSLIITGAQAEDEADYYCSSRGSSGFQVFFGAGTKLTVL the result was 3.62 (1 of 3 replicates).
With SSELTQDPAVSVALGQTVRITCEGDSLRYYYASWYQQKPGQAPILVIYGPNNRPSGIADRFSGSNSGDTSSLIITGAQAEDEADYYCSSQDSSGFQVFFGAGTKLTVL the result was 3.60 (2 of 3 replicates).
With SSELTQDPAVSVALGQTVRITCEGDSLRYYYANWYQQKPGQAPILVIYGMNNRPYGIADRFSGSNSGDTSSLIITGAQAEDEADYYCSSVDSSGFQVFFGAGTKLTVL the result was 2.92 (3 of 3 replicates).
With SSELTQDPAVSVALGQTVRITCEGDSLRYYYAKWYQQKPGQAPILVIYGHNNRPSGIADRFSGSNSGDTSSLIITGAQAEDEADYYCSSRDSSGFQVFFGAGTKLTVL the result was 4.36 (2 of 3 replicates).
With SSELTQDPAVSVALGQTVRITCEGDSLRYYYANWYQQKPGQAPILVIYGVNTRPSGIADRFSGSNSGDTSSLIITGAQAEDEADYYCSSRDSSGFQYFFGAGTKLTVL the result was 3.66 (2 of 3 replicates).
With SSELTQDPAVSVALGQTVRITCEGDSLRYKYANWYQQKPGQAPILVIYGVNNRPSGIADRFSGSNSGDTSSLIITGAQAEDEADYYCSSRISSGFQVFFGAGTKLTVL the result was 1.19 (3 of 3 replicates).
With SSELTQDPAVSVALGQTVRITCEGDSLRYVYANWYQQKPGQAPILVIYGFNNRPSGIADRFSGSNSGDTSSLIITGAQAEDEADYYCSSRDSSGFQVFFGAGTKLTVL the result was 3.11 (3 of 3 replicates).
With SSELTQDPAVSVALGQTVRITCEGFSLRYYYANWYQQKPGQAPILVIYGGNNRPSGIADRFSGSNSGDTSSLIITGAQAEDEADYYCSSRDSSGFQVFFGAGTKLTVL the result was 2.61 (3 of 3 replicates).
With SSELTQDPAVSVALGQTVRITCTGDSLRYYYANWYQQKPGQAPILVIYGTNNRPSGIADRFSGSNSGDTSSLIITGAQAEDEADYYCSSRHSSGFQVFFGAGTKLTVL the result was 3.19 (3 of 3 replicates).
With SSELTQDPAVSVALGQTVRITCEGDSLRYYYANWYQQKPGQAPILVIYGACNRPSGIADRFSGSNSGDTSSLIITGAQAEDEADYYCSSRDSSGFVVFFGAGTKLTVL the result was 3.94 (3 of 3 replicates).
With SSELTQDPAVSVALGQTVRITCEGDSLRYYYANWYQQKPGQAPILVIYGSNNRPSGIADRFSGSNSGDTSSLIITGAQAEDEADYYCSSRDSSAFLVFFGAGTKLTVL the result was no signal (0 of 3 replicates).
With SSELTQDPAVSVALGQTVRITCEGKSLRYYYANWYQQKPGQAPILVIYGGNNRPSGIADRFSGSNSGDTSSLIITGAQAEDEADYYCSSRDSSGFQTFFGAGTKLTVL the result was 3.14 (3 of 3 replicates).
With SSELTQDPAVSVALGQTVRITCEGDSLRYYYANWYQQKPGQAPILVIYGQNSRPSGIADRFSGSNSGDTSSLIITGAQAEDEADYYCSSRDSMGFQVFFGAGTKLTVL the result was 4.05 (3 of 3 replicates).
With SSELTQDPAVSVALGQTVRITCEGDSWRYYYANWYQQKPGQAPILVIYDANNRPSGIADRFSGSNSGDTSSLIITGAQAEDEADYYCSSRDSSGFQVFFGAGTKLTVL the result was 4.15 (1 of 3 replicates).
With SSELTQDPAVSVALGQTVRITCLGDSLRYYYANWYQQKPGQAPILVIYGNNNRPSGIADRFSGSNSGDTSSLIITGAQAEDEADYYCSSRDCSGFQVFFGAGTKLTVL the result was 3.06 (3 of 3 replicates).

For reference, the parent read 2.31 as the reference entry and 2.25 as a member of this library.